## Binding of CDR-mutated scFvs to a peptide of the spike HR2 region

Target: peptide PDVDLGDISGINAS, taken from heptad repeat 2 (HR2) of SARS-CoV-2 spike.

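The library (AAYL52) carries one to three amino acid substitutions per variant, with no insertions or deletions. The scFvs were displayed on barcoded MATa yeast, the peptide on MATalpha yeast. Mating (16 h, 30 °C) was followed by selection of diploids and sequencing of their barcodes. A regression on co-assayed BCL2-family reference pairs converts the normalised counts of each replicate to an apparent Kd. Each pool was mated in three replicate cultures.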

Parent scFv Ab-95: VH joined to VL by three GGGGS repeats. Changes lie in the light chain CDRs alone.
VH: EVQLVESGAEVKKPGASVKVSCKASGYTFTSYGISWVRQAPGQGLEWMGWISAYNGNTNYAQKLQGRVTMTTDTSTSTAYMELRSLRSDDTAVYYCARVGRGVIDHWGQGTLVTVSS
VL: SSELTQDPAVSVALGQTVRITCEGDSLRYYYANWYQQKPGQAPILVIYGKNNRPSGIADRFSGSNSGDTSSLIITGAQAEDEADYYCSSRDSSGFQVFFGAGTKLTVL

Substitutions are numbered in sequence along the VL above, starting at 1 (not Kabat). Scale: log10 of Kd in nM, estimated from mating counts; low values are strong binders. Averages over replicates are reported, and they cover detected replicates only. "n.d." means that the variant was in the library but no mating with the target was seen in that replicate; the authors take this as a sign of poor binding, and no number exists. As a blank, each scFv also met three strains without target: over library AAYL52, 28% of these pairings were detected, typically at 3.91 and seldom below 2.90. For each scFv, signals with the empty controls are counted beside the result, with their mean in brackets. Parent in this assay: reference entry 2.31, copy in this library 2.25.

changes | replicates, log10 nM | mean, log10 nM | empty controls
L27K/F95P | 5.39 n.d. n.d. | 5.39 | 2/9 (3.73)
S26A/R53I/V97C | n.d. n.d. n.d. | n.d. | 2/9 (3.98)
K50D/P54D | 1.58 1.75 2.62 | 1.98 | 0/9
K50N/F95S/Q96S | 2.72 2.74 2.76 | 2.74 | 2/9 (3.58)
R90H/S92C/F95K | n.d. 4.79 n.d. | 4.79 | 1/9 (2.85)
F98V | 2.49 3.25 3.17 | 2.97 | 3/9 (3.71)
D25F/N52W | n.d. 4.28 n.d. | 4.28 | 2/9 (3.20)
G24V/S93F | 3.41 4.24 n.d. | 3.83 | 1/9 (2.62)
D25I/G94P/V97A | 2.82 2.48 3.09 | 2.80 | 3/9 (3.57)
R28I/Y31L/K50L | 2.98 n.d. 3.67 | 3.32 | 5/9 (3.55)
N33S/D91F | 4.06 3.64 3.47 | 3.72 | 3/9 (3.49)
G24Q/Y29H/G49I | 4.31 5.66 n.d. | 4.99 | 7/9 (4.41)
Y30V/N52W/S88I | n.d. n.d. n.d. | n.d. | 0/9
R28L/G49P/S93E | 5.07 n.d. n.d. | 5.07 | 0/9
A32F/N51W/S89P | 4.20 3.46 n.d. | 3.83 | 5/9 (4.03)
E23L/Y30W/P54S | 3.16 4.07 2.62 | 3.28 | 2/9 (3.09)
D25S/A32E/G94K | n.d. n.d. n.d. | n.d. | 1/9 (4.20)
S88G/G94K/F98Q | 2.43 2.44 2.19 | 2.35 | 4/9 (3.64)
L27H/P54G | 4.69 n.d. n.d. | 4.69 | 0/9
R53P/S93E/F95L | 5.69 3.74 4.22 | 4.55 | 3/9 (3.91)
S26N/R53N/S92V | n.d. 4.58 3.04 | 3.81 | 3/9 (3.76)
G24Q/Y29A/Y31L | 2.39 2.27 1.94 | 2.20 | 5/9 (4.24)
S26Q/N51T/S92A | 4.67 4.08 n.d. | 4.38 | 3/9 (3.86)
S88G/V97N/F98M | n.d. n.d. n.d. | n.d. | 0/9
L27A/Y30T/F98C | n.d. n.d. 3.51 | 3.51 | 2/9 (3.85)
R90I | 4.57 n.d. 4.35 | 4.46 | 1/9 (3.35)
D25G/G49C | 3.51 3.57 3.34 | 3.47 | 2/9 (4.75)
Y29N/G49P/S89R | 3.28 n.d. n.d. | 3.28 | 3/9 (4.24)
L27Y/R90T/F98A | 3.24 n.d. n.d. | 3.24 | 4/9 (3.34)
P54G/R90N/Q96R | 3.25 3.67 4.10 | 3.67 | 3/9 (3.58)
P54K/D91K/S93R | n.d. n.d. 2.92 | 2.92 | 2/9 (3.72)
S26H/Y31L/R53C | n.d. n.d. n.d. | n.d. | 2/9 (3.68)
S26W/N51D/S88M | 2.85 3.30 2.67 | 2.94 | 2/9 (3.70)
G49D/N52V | 2.01 2.34 1.75 | 2.03 | 2/9 (3.52)

4 of these entries, quoted again:

{"changes": "G24Q/Y29A/Y31L", "replicates, log10 nM": "2.39 2.27 1.94", "mean, log10 nM": "2.20", "empty controls": "5/9 (4.24)"}
{"changes": "D25S/A32E/G94K", "replicates, log10 nM": "n.d. n.d. n.d.", "mean, log10 nM": "n.d.", "empty controls": "1/9 (4.20)"}
{"changes": "R28L/G49P/S93E", "replicates, log10 nM": "5.07 n.d. n.d.", "mean, log10 nM": "5.07", "empty controls": "0/9"}
{"changes": "D25I/G94P/V97A", "replicates, log10 nM": "2.82 2.48 3.09", "mean, log10 nM": "2.80", "empty controls": "3/9 (3.57)"}

The measurements come from Engelhart et al. 2022 (doi:10.1038/s41597-022-01779-4) through the FLAb antibody collection.